Earlier results as cited in patent US9737596B2, “Vaccine for the prevention of breast cancer recurrence” (The Henry M. Jackson Foundation for the Advancement of …, priority 2008, dated 2017).

System: patients with low to intermediate HER2/neu expression
Conditions: human, in vivo; cited from earlier work

For “trastuzumab: recombinant, humanized monoclonal antibody that binds the extracellular juxtamembrane domain of HER2/neu protein”, the “activity in patients with low to intermediate HER2/neu expression” value is listed as “very limited activity”.
